Screening data from PubChem BioAssay.
Sampled rows, rich in hits. Any-hit rate of the full collection: about 1.2%.
Pemphigus Ab inh – inhibitors of pemphigus antibody binding to DSG3, primary screen, biochemical, bead-based, flow cytometry, scFv-GFP; 0.48% of 310,000 active; DSG3-coupled beads, scFv-anti-DSG3-GFP binding; hits give low values; Desmoglein-3 (Homo sapiens), P32926; binding (percent of control), % at 10 µM;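 active = binding more than 3 SD below its plate's average and above zero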;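 also: hits lower antibody fragment binding to DSG3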
UUG fidelity – alters start codon recognition fidelity in yeast; AID 602363; activity score, % at 18.7 µM; 350,000 tested, 0.13% active; S. cerevisiae UUG-firefly luciferase reporter, luminescence/redox ratio;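 active means replicate mean at a twofold rise or more, about +100% in these data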;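 further: firefly luciferase made from a UUG start codon reports start codon fidelity; reporter light over untreated wells divided by growth signal over untreated wells; some hits fall short of that in this replicate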
TbMetRS inhib – T. brucei MetRS inhibitors, primary screen, biochemical, luminescence | purified T. brucei MetRS, ATP depletion, Kinase-Glo luminescence | inhibition, % at 11.9 µM | 0.4% of 360,000 active | AID 624268, 2012;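 active = inhibition above a per-plate cutoff of the control wells' mean inhibition plus 3 SD, cut at about 5.5% in these data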;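 also: 0% = DMSO wells median and 100% = median of wells with control inhibitor compound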
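Assay system: T. brucei methionyl-tRNA synthetase, purified | Medium: HEPES buffer with MgCl2, KCl, DTT, spermine, BSA, pyrophosphatase | Compound: 11.9 µM single point | Incubation: 15 min enzyme-compound preincubation, 2 h reaction, 10 min detection, 25 °C | Measured by: Kinase-Glo luciferase luminescence reporting remaining unconsumed ATP | Measure: % inhibition normalized to control-well medians | Replication: Singlicate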
Rce1 inh – yeast Rce1p protease inhibitors, primary screen, biochemical, fluorescence, cell-free homogeneous; CAAX prenyl protease 2 (Saccharomyces cerevisiae (strain ATCC 204508 / S288c)), Q03530; yeast membranes, quenched prenylated peptide cleavage fluorescence; calls only; 0.27% of 290,000 active;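 active = fall in fluorescence gain of 50% or more versus controls, with final raw signal at or below 3038400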;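 also: plate controls were neutral control wells for no effect and wells lacking membranes for full effect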
Arr AP2 block – inhibitors of beta-arrestin/AP2 binding, primary screen, biochemical, GPCR trafficking, flow cytometry. beta-arrestin 1 C-terminal peptide binding to AP2 beta2-adaptin appendage (human). FITC-arrestin peptide / GST-AP2 beads; AP2 beta2 appendage carries R879A mutation. inhibition, % at 10 µM. 0.31% of 340,000 active;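 active = inhibition above a set limit, near 3 SD of compounds lacking own fluorescence, cut at about 54% in these data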;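 also: plate controls were DMSO wells for no effect and 5 µM unlabelled arrestin peptide for full effect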
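Assay system: GST-AP2 R879A bound to glutathione beads, E. coli-expressed; Medium: PBS with 0.05% Tween 20 and 0.1% BSA; Also added: fluorescein-tagged arrestin peptide at 50 nM final; Timing: 12 min plus 1 h, RT; Measured by: flow cytometry, FL1 (488/535 nm); Evaluation: percent drop in bead-associated FITC signal.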
TbMetRS confirm – T. brucei MetRS inhibitors, confirmation, biochemical, luminescence; shares compounds with TbMetRS inhib; T. brucei MetRS enzyme, luminescence (ATP depletion); inhibition, % at 11.9 µM; 93% of 1,400 active; AID 624412, 2012; in the data active = inhibition above about 7%
Jurkat tox – Jurkat T cell cytotoxicity, cytotoxicity control for T. brucei MetRS inhibitor project, luminescence, high throughput | shares compounds with TbMetRS inhib | Jurkat cells viability, ATP luminescence | inhibition, % at 8.3 µM | 12% of 1,400 active | AID 624413, 2012; in the data active = inhibition above about 15%;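 also: 0% = vehicle and 100% = reference inhibitor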
Tb MetRS inh FP – T. brucei MetRS inhibitors, orthogonal assay for T. brucei MetRS inhibitor project, biochemical, fluorescence polarization. purified T. brucei MetRS. shares compounds with TbMetRS inhib. AID 651607, 2012. inhibition, % at 11.9 µM. 44% of 1,400 active; in the data active = inhibition above about 17%;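 also: 0% = vehicle wells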
Active calls of the source: *.

A first look, 3 compounds:
Results for COc1cc(Cn2c3ccc(NC(=S)NCc4ccc(C)cc4)cc3c(=O)n2C)ccc1F ?
UUG fidelity: -16; TbMetRS inhib: 7.9*; TbMetRS confirm: 28*; Jurkat tox: 1; Tb MetRS inh FP: 16

What do the screens show for `Cc1cc(C)cc(Cn2c3ccc(NC(=S)NCc4ccccc4F)cc3c(=O)n2C)c1`?
UUG fidelity: -18; TbMetRS inhib: 8.5*; TbMetRS confirm: 33*; Jurkat tox: -7; Tb MetRS inh FP: 16

Results for COc1cc(Cn2c3ccc(NC(=O)CC(C)(C)C)cc3c(=O)n2C)ccc1F ?
UUG fidelity: -6; TbMetRS inhib: 0

All compounds of this part (from the top)
Results for COc1cc(Cn2c3ccc(NC(=S)NCc4ccc(C)cc4)cc3c(=O)n2C)ccc1F ?
UUG fidelity: -16; TbMetRS inhib: 7.9*; TbMetRS confirm: 28*; Jurkat tox: 1; Tb MetRS inh FP: 16

What do the screens show for `Cc1cc(C)cc(Cn2c3ccc(NC(=S)NCc4ccccc4F)cc3c(=O)n2C)c1`?
UUG fidelity: -18; TbMetRS inhib: 8.5*; TbMetRS confirm: 33*; Jurkat tox: -7; Tb MetRS inh FP: 16

Results for COc1cc(Cn2c3ccc(NC(=O)CC(C)(C)C)cc3c(=O)n2C)ccc1F ?
UUG fidelity: -6; TbMetRS inhib: 0

What do the screens show for `CN1[C@@H]2c3ccc(-c4ccc(F)cc4)c(=O)n3C[C@H]1[C@H](CO)[C@H]2C(=O)NC1CCCCC1`?
UUG fidelity: -5

What do the screens show for `Cc1cc(O)c(-c2cc(C(=O)NCCc3ccc(S(N)(=O)=O)cc3)[nH]n2)cc1C`?
Pemphigus Ab inh: 95; UUG fidelity: -21; TbMetRS inhib: 0; Rce1 inh: inactive; Arr AP2 block: 35

How did NS(=O)(=O)c1ccc(CCNC(=O)c2cc(-c3cc(Cl)ccc3O)n[nH]2)cc1 do in these assays?
Pemphigus Ab inh: 92; UUG fidelity: 13; TbMetRS inhib: 32*; Rce1 inh: inactive; Arr AP2 block: -4; TbMetRS confirm: 38*; Jurkat tox: 14; Tb MetRS inh FP: 36*

How did Cc1cc(C)c(O)c(-c2cc(C(=O)NCCc3ccc(S(N)(=O)=O)cc3)[nH]n2)c1 do in these assays?
Pemphigus Ab inh: 97; UUG fidelity: -29; TbMetRS inhib: 5.7*; Arr AP2 block: 23; TbMetRS confirm: 15*; Jurkat tox: 4; Tb MetRS inh FP: 17*

Results for CCC1CCCN1Cn1cnc2c([nH]c3ccc(Cl)cc32)c1=O (stereo not given) ?
Pemphigus Ab inh: 107; UUG fidelity: -5; TbMetRS inhib: 5.8*; Rce1 inh: inactive; Arr AP2 block: -12; TbMetRS confirm: 18*; Jurkat tox: 4; Tb MetRS inh FP: -2

Results for O=C(c1ccccc1)c1nn(-c2ccccc2)c2nnc(Cc3ccccc3)c(=O)n12 ?
Pemphigus Ab inh: 118; UUG fidelity: -4; TbMetRS inhib: 6.5*; Rce1 inh: inactive; Arr AP2 block: 11; TbMetRS confirm: 16*; Jurkat tox: 15*; Tb MetRS inh FP: 6

How did CO[C@H]1CN(C)C(=O)c2ccc(NC(=O)c3cccc(F)c3)cc2OC[C@@H](C)N(C)C[C@@H]1C do in these assays?
UUG fidelity: 5

How did C[C@H](CO)N1C[C@H](C)[C@H](CN(C)C(=O)Nc2ccc3c(c2)OCO3)Oc2ccc(NC(=O)Cc3cn(C)c4ccccc34)cc2CC1=O do in these assays?
UUG fidelity: -4

Results for O=C(CN1CCSC1=NCc1ccccc1)c1ccc(Cl)c(Cl)c1 ?
Pemphigus Ab inh: 113; TbMetRS inhib: 61*; Rce1 inh: inactive; Arr AP2 block: 1; TbMetRS confirm: 83*; Jurkat tox: 3; Tb MetRS inh FP: 67*

Results for O=C(Cn1ccccc1=S)c1ccc(Cl)c(Cl)c1 ?
Pemphigus Ab inh: 107; UUG fidelity: -24; TbMetRS inhib: 0; Rce1 inh: inactive; Arr AP2 block: -18

How did COc1ccc(CNC(=O)CSc2nc3ccc(C)cc3[nH]2)cc1OC do in these assays?
Pemphigus Ab inh: 118; UUG fidelity: -14; TbMetRS inhib: 8.9*; Rce1 inh: inactive; Arr AP2 block: 0; TbMetRS confirm: 21*; Jurkat tox: 3; Tb MetRS inh FP: 7

Results for Cc1ccc2nc(SCC(=O)NCc3ccc(F)cc3)[nH]c2c1 ?
Pemphigus Ab inh: 104; UUG fidelity: -20; TbMetRS inhib: 18*; Rce1 inh: inactive; Arr AP2 block: 18; TbMetRS confirm: 22*; Jurkat tox: -1; Tb MetRS inh FP: 6

Results for Cc1ccc2nc(SCC(=O)NCc3ccc(S(N)(=O)=O)cc3)[nH]c2c1 ?
Pemphigus Ab inh: 120; UUG fidelity: -14; TbMetRS inhib: 0; Rce1 inh: inactive; Arr AP2 block: -11

What do the screens show for `COc1ccc(-n2c(SCC(=O)Nc3ccc(Cl)cc3)nc(O)c(Cc3ccccc3)c2=O)cc1`?
Pemphigus Ab inh: 107; UUG fidelity: -16; TbMetRS inhib: 47*; Rce1 inh: inactive; Arr AP2 block: 29; TbMetRS confirm: 70*; Jurkat tox: -10; Tb MetRS inh FP: 35*

How did COc1ccc(CNC(=O)CSc2nc3ccccc3n2C(C)=O)cc1 do in these assays?
Pemphigus Ab inh: 116; UUG fidelity: -3; TbMetRS inhib: 17*; Rce1 inh: inactive; Arr AP2 block: 9; TbMetRS confirm: 29*; Jurkat tox: -3; Tb MetRS inh FP: 10

Results for Cc1nnc(NC(=O)CSc2nnc3c(n2)[nH]c2ccc(Br)cc23)s1 ?
Pemphigus Ab inh: 115; TbMetRS inhib: 12*; Rce1 inh: inactive; Arr AP2 block: 17; TbMetRS confirm: 63*; Jurkat tox: 11; Tb MetRS inh FP: 54*

What do the screens show for `COc1ccc(CNC(=O)CSc2nnc3c(n2)[nH]c2ccccc23)cc1`?
UUG fidelity: -21; TbMetRS inhib: 42*; Rce1 inh: inactive; Arr AP2 block: 16; TbMetRS confirm: 81*; Jurkat tox: 4; Tb MetRS inh FP: 75*

Results for COc1cccc(CNC(=O)CSc2nnc3c(n2)[nH]c2ccccc23)c1 ?
UUG fidelity: -26; TbMetRS inhib: 20*; Arr AP2 block: 44; TbMetRS confirm: 64*; Jurkat tox: 5; Tb MetRS inh FP: 35*

Results for O=C(C[C@H]1CC[C@@H](NS(=O)(=O)c2ccc(F)cc2)[C@H](CO)O1)N1CCC(Cc2ccccc2)CC1 ?
UUG fidelity: 10

Results for COc1cccc(CNC(=O)CSc2nnc3c(n2)[nH]c2ccc(OC)cc23)c1 ?
UUG fidelity: -17; TbMetRS inhib: 1; Rce1 inh: inactive; Arr AP2 block: 27
